Patent publication US9440988B2 (dated 2016)

Test system: Shh pathway activity in Ptc1−/− cells

| SMILES | Maximum normalized β-galactosidase activity | blocking/suppression of pathway activity in cells lacking Ptc1 function | minimum normalized β-galactosidase activity |
| --- | --- | --- | --- |
| CC1=C2C[C@H]3[C@@H](CC=C4C[C@@H](O)CC[C@@]43C)[C@@H]2CC[C@]12O[C@@H]1C[C@H](C)CN[C@H]1[C@H]2C [Compound 1, cyclopamine] | 916 | fully suppressing | 144 |
| CC1=C2C(=O)[C@H]3[C@@H](CC=C4C[C@@H](O)CC[C@@]43C)[C@@H]2CCC12O[C@@H]1C[C@H](C)CN[C@H]1[C@H]2C (stereo partly shown) [Compound 2, jervine] |  | fully suppressing |  |
